Results: paper PMC5831360 (Nature chemical biology, 2017)

Sequences of proteins named here, by UniProt entry; tags and fusion partners are left off.
UniProt Q5JUX0, whole entry: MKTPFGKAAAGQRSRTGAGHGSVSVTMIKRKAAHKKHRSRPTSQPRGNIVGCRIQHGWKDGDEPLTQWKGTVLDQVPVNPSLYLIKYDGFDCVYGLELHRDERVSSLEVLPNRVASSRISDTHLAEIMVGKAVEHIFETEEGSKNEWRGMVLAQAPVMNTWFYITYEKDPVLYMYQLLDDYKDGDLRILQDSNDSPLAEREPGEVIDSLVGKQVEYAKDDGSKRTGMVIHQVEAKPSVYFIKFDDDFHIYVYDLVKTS

Molecular target: SPIN3 (Homo sapiens, UniProt Q5JUX0)
Settings: chemiprecipitation

O=C(c1ccc(C(=O)N2CCC(CCN3CCCC3)CC2)c(Nc2ccc(OCN3CCCC3)cc2)c1)N1CCC(CCN2CCCC2)CC1 [EML631]
interaction of tagged compound with SPIN3: no interaction
